Measured values as given in US20250340529A1, “Heterocyclic Compounds as Immunomodulators of PD-L1 Interactions” (Ascletis BioScience Co., Ltd, priority 2021, published 2025).
Like-named read-outs stand apart in the source and are kept apart here.

Amino acid sequences for entries named in this document (tags omitted). Residues count along the entry.
UniProt Q9NZQ7, 19-238 limits assumed: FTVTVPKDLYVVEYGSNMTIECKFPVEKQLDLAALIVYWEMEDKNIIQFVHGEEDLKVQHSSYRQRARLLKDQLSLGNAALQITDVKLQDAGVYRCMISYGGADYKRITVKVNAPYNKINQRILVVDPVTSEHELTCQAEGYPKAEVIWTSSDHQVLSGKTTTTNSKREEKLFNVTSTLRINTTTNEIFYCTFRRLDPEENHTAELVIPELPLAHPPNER
UniProt Q9NZQ7, 19-290 limits assumed: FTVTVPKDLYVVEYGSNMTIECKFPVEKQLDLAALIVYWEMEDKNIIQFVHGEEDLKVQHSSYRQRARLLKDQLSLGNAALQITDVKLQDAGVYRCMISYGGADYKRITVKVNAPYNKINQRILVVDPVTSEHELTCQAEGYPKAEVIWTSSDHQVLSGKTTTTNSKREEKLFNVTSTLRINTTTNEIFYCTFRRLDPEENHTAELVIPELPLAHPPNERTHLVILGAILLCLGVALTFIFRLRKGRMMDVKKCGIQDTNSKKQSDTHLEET

Assays:
[1] = biological target: PD-1/PD-L1 (Homo sapiens (Human), UniProt Q9NZQ7); test: PD-1/PD-L1 Homogeneous Time-Resolved Fluorescence (HTRF) binding assay; details: read-out: HTRF IC50 (nm), 3 nM PD1, 10 nM PD-L1, 25° C., PBS pH 7.4
Description: PD-1/PD-L1 Homogeneous Time-Resolved Fluorescence (HTRF) Binding Assay
The assays were conducted in a standard black 384-well polystyrene plate with a final volume of 20 μL. Inhibitors were first serially diluted in DMSO and then added to the plate wells before the addition of other reaction components. The final concentration of DMSO in the assay was 1%. The assays were carried out at 25° C. in the PBS buffer (pH 7.4) with 0.05% Tween-20 and 0.1% BSA. Recombinant human PD-L1 protein (19-238) with a Histag at the C-terminus was purchased from AcroBiosystems (PD1-H5229). Recombinant human PD-1 protein (25-167) with Fe tag at the C-terminus was also purchased from AcroBiosystems (PD1-H5257). PD-L1 and PD-1 proteins were diluted in the assay buffer and 10 μL was added to the plate well. Plates were centrifuged and proteins were preincubated with inhibitors for 40 minutes. The incubation was followed by the addition of 10 μL of HTRF detection buffer supplemented with Europium cryptate-labeled anti-human IgG (PerkinElmer-AD0212) specific for Fe and anti-His antibody conjugated to SureLight®-Allophycocyanin (APC, PerkinElmer-AD0059H). After centrifugation, the plate was incubated at 25° C. for 60 min. before reading on a PHERAstar FS plate reader (665 nm/620 nm ratio). Final concentrations in the assay were—3 nM PD1, 10 nM PD-L1, 1 nM europium anti-human IgG and 20 nM anti-His-Allophycocyanin. IC50 determination was performed by fitting the curve of percent control activity versus the log of the inhibitor concentration.

[2] = biological target: PD-L1/CHO-K1 cells (Homo sapiens (Human), UniProt Q9NZQ7); test: PD-L1 internalization (FACS, PD-L1/CHO-K1 cells); details: % activation of PD-L1 internalization = 1 − PD-L1 signal; 17 hours incubation
Description: Day 1. Seeding cells: Digest the PD-L1/CHO-K1 cells by trypsin in the flask, then counting the cell number and diluted to 1×10^5 cells/ml. Seeding cells to 6 well plate (Corning, #3516), 2 mL/well. The plates were incubated at 37° C., […] incubator for 24 hours.
Day 2. Preparing compounds and treated cells: Dilute GLC01-258 from 15 mM to 0.5 mM by using DMSO, and 15 mM compound were serial diluted from 15 mM˜15 nM by DMSO, Then 500 times dilute the compounds by using assay buffer. Prepare 0.2% DMSO in assay buffer used for Vehicle control and low control. Take out the plates, aspirated the medium and thrown away. Adding 2 mL of the diluted compounds, vehicle control and low control to corresponding wells. Then incubated the plates for 17 hours at 37° C., 5% CO2 incubator.
Day 3. Preparing samples for FACS: After 17 hours incubation, discarded medium and washed by the PBS. Cells in each well were Digested by trypsin. Centrifuge and discard the supernatant, then wash the cells by DPBS (Ca^2+, Mg^2+ free) for twice. 10 fold dilute the antibody (PE-conjugated mouse anti-human CD274) by DPBS, then adding the staining solution to compounds treated samples and vehicle control sample. The low control only add DPBS without antibody. Incubate the plates at room temperature for 20 minutes and protect from light. After 20 minutes, wash the samples by DPBS for twice. […]

[3] = biological target: extracellular domains of PD-L1 (Homo sapiens (Human), UniProt Q9NZQ7); test: PD-L1 dimerization (biochemical protein-protein interaction assay); details: read-out: Dimerization EC50 (nm); PDL1-Eu and PDL1-A2, 25° C., 120 min
Description: Compounds were tested in biochemical protein-protein interaction assays to determine if they can specifically dimerize the extracellular domains of PD-L1. • (1) Dilute cpd 1:3 in succession in DMSO for each column for 10±0 pts (refer to dilution plate map) • (2) Transfer 0.2 μL cpds solution in each row to 384 assay plate using Echo, each column containing 2 replicates (refer to assay plate map). • (3) Add 20 μL prepared mixture include PDL1-Eu and PDL1-A2 solution to assay plate, centrifuge at 1000 rpm for 1 min. • (4) Incubate at 25° C. for 120 min. • (5) Read fluorescence signal on Envision 2104 plate reader. • (6) Read the Ratio (665 nm/615 nm) signal on Envision. • (7) Analyze the raw data using the equation (V. Data analysis)

SMILES | IC50 [1] [nM] | other results
O=C1CC[C@@H](CN2C(=O)C(F)(F)Oc3cc(-c4cccc(-c5cccc(-c6cnc7c(c6)OC(F)(F)C(=O)N7C[C@@H]6CCC(=O)N6)c5Cl)c4Cl)cnc32)N1 | 146 | 
O=C1CC[C@@H](CN2C(=O)CCNc3cc(-c4cccc(-c5cccc(-c6ccc7c(c6)NCCC(=O)N7C[C@@H]6CCC(=O)N6)c5Cl)c4Cl)ccc32)N1 | 737 | 
O=C(O)CN1C(=O)COc2cc(-c3cccc(-c4cccc(-c5ccc6c(c5)OCC(=O)N6CC(=O)O)c4Cl)c3Cl)ccc21 |  | IC50 ([1]; tested form: Na salt): 3000 nM
O=C1CC[C@@H](CN2c3ccc(-c4cccc(-c5cccc(-c6ccc7c(c6)OCS(=O)(=O)N7C[C@@H]6CCC(=O)N6)c5Cl)c4Cl)cc3OCS2(=O)=O)N1 | 191 | 

Further lines, with some results ahead:

IC50 [1] [nM] | SMILES | other results
10.1 | O=C(O)[C@@H]1C[C@@H](O)CN1CCCN1C(=O)COc2cc(-c3cccc(-c4cccc(-c5ccc6c(c5)OCC(=O)N6CCCN5C[C@H](O)C[C@H]5C(=O)O)c4Cl)c3Cl)ccc21 | 
6.47 | O=C(O)[C@H](CO)NCCCN1C(=O)COc2cc(-c3cccc(-c4cccc(-c5ccc6c(c5)OCC(=O)N6CCCN[C@@H](CO)C(=O)O)c4Cl)c3Cl)ccc21 | Internalization [2]: 2.90%; EC50 [3]: 121 nM
